The chains behind the UniProt entries cited, without tags or fusion partners.
UniProt P08908, whole entry: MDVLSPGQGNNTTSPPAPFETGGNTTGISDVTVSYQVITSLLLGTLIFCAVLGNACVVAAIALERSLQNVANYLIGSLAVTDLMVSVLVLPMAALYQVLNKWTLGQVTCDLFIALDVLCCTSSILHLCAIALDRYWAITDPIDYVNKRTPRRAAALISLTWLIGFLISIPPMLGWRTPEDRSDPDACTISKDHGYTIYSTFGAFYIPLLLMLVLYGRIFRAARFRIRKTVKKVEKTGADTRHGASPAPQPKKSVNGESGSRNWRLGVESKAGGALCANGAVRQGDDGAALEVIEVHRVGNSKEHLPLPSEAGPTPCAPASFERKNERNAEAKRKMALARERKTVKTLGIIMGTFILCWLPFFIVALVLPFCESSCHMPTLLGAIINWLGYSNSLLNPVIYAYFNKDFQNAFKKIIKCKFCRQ

In ChEMBL document CHEMBL1147799, “An integrated in silico 3D model-driven discovery of a novel, potent, and selective amidosulfonamide 5-HT1A agonist (PRX-00023) for the treatment of anxiety and depression” (J Med Chem, 2006):

Biological target: 5-hydroxytryptamine receptor 1A (Homo sapiens, UniProt P08908)
Assay: Activity against 5HT1A receptor by Gi-[35S]GTP-gamma-S binding assay
Assay type: functional

pEC50: 7.70
SMILES: CC(=O)Nc1cccc(N2CCN(CCCCNS(=O)(=O)c3ccc(C)cc3)CC2)c1

pEC50: −log10 of the molar value.
